Shown are actives, neighbours in structure and some others; about 0.43% of the full set was active somewhere.
Rango complex inh: inhibitors of Rango-importin beta complex formation. 340,000 tested, 0.031% active. Q14974. Potency, µM (doses to about 92.2 µM), for inactives: at the top dose inhibition of complex formation. Rango CFP/YFP FRET sensor + importin beta, 45 min;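 further: potency means the concentration at half of the fitted maximal effect; 0% = DMSO wells and 100% = buffer wells lacking importin beta; nearly all actives have a fitted effect of over 15% in size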
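FRET biosensor (snurportin 1 IBB flanked by EYFP and cerulean), 50 nM, with compound 5 min, then 0.125 microM importin beta in PBS, 1 mM DTT, 0.02% Tween-20, 0.1% BSA. CFP/YFP ratio read after 45 min at room temperature; pre-read flags interference.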
B2AR arrestin: beta2AR (human) beta-arrestin recruitment activity; beta-arrestin recruitment to beta2AR, cell-based reporter; Potency, µM (titrated, usually from 46.1 µM), for the others: at the highest dose activation, hits mostly activators; 330,000 tested, 0.02% active; AID 492947; active means well fitted curve in the direction sought with a large enough effect; inconclusive means small, poorly fitted or top-dose-only effect, or another doubt; inactive means no such curve, though single readings can be large; an effect the other way counts as inactive or inconclusive;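 further: potency means the concentration at half of the fitted maximal effect; 0% = DMSO controls and full agonism = EC100 isoproterenol or metaproterenol; nearly all actives have a fitted effect of over 65% in size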
CCT modulator: changes cytosolic chaperonin activity; purified chaperonin ATPase assay, HTRF ADP detection, 30 min; activity change, % (concentration not given with the values), hits read low; 360,000 tested, 0.3% active; AID 651819; in the data active means activity change below about -30%; further: on the % scale 0 is the no-effect control and ±100 the full control effect
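TRiC at 40 or 20 nM final (batch-dependent) in 30 mM Tris pH 7.4, 100 mM KCl, 5 mM MgCl2, 1 mM DTT, with compound at single 76 uM and 10 uM ATP, 30 min at 37 deg C. ADP detected by HTRF Transcreener, 665/615 ratio.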
Rango dissoc inh: prevents RanGTP from dissociating the Rango-importin beta complex. O95149+P62826. Potency, µM (titrated, usually from 46.1 µM), without a hit: at the highest dose activity change, negative = inhibition. 340,000 tested, 0.071% active. Biochemical FRET Rango-importin beta, RanGTP-induced dissociation; further: potency means the concentration at half of the fitted maximal effect; % of control where 0% means no effect; nearly all actives have a fitted effect of over 45% in size
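Compounds preincubate 5 min with complex of recombinant Rango and importin beta in PBS with 1 mM DTT. Ran (0.6 uM) loaded with 2 mM GTP plus 0.2 uM RCC1 starts dissociation; FRET is recorded 45 min later.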
MmCpn inh: inhibitors of Methanococcus maripaludis chaperonin TRiC (MmCpn) | Potency, µM (series often up to 76.9 µM), for the others: at the highest dose activity, negative = inhibition, usual class: inhibitors | purified Mm-Cpn ATPase, ADP Transcreener TR-FRET | 330,000 tested, 0.031% active | AID 504842; active means well fitted curve in the direction sought with a large enough effect; inconclusive means small, poorly fitted or top-dose-only effect, or another doubt; inactive means no such curve, though single readings can be large; an effect the other way counts as inactive or inconclusive; further: potency means the concentration at half of the fitted maximal effect; on the % scale 0 is the no-effect control and ±100 the full control effect; nearly all actives have a fitted effect of over 80% in size
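TR-FRET (320 nm excitation; 590 and 665 nm emission) reports ADP made from 10 uM ATP by 25 nM enzyme; compounds were preincubated 10 min, reaction run 30 min, both at 37°C.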
Active calls of the source: *; [ ] = dose if it differs, or a comment. Unless noted, the call rests on the fitted dose curve.

How did Cc1cc(-c2nnc(CCC(=O)N(C)CCc3ccccc3)o2)no1 do in these assays?
Rango complex inh: -2%; B2AR arrestin: -1%; CCT modulator: 0; Rango dissoc inh: 7%; MmCpn inh: 3%

How did FC(F)(F)c1cccc(-c2ccn3ncnc3n2)c1 do in these assays?
Rango complex inh: -3%; B2AR arrestin: 0%; CCT modulator: -56*; Rango dissoc inh: 2%; MmCpn inh: 2%

How did COc1cccc(OCc2cc(C(=O)N3CCC(c4ccncc4)CC3)no2)c1 do in these assays?
Rango complex inh: 2%; B2AR arrestin: 0%; CCT modulator: -1; Rango dissoc inh: 1%; MmCpn inh: -2%

How did CC(=O)c1ccc(OCc2cc(C(=O)N3CCC(c4ccncc4)CC3)no2)cc1 do in these assays?
Rango complex inh: -2%; B2AR arrestin: 0%; CCT modulator: -49*; Rango dissoc inh: -1%; MmCpn inh: 0%

What do the screens show for `NC(=O)C1CCN(c2nc(-c3ccc(C(F)(F)F)cc3)cs2)CC1`?
MmCpn inh: -21%

Results for Oc1ccc(/C=N/n2c(C3CCCCC3)n[nH]c2=S)c(O)c1 ?
Rango complex inh: -4%; B2AR arrestin: -1%; CCT modulator: -3; Rango dissoc inh: 13%; MmCpn inh: -2%

What do the screens show for `Oc1ccc(Br)cc1/C=N/n1c(C2CCCCC2)n[nH]c1=S`?
Rango complex inh: inconclusive; B2AR arrestin: 0%; CCT modulator: -1; Rango dissoc inh: 15µM*; MmCpn inh: 3%

Results for O=C(O)C1CCCN1S(=O)(=O)c1cc(Cl)ccc1Cl (centres undefined) ?
Rango complex inh: -3%; B2AR arrestin: 0%; CCT modulator: -56*; Rango dissoc inh: 24%; MmCpn inh: 0%

How did O=C(O)[C@@H]1CCCN1S(=O)(=O)c1cccc(S(=O)(=O)N2CCC[C@H]2C(=O)O)c1 do in these assays?
Rango complex inh: -2%; B2AR arrestin: -1%; CCT modulator: 0; Rango dissoc inh: -7%; MmCpn inh: 0%

How did CCOC(=O)c1ccc(N2C(=O)C3CC=CCC3C2=O)cc1 (centres undefined) do in these assays?
Rango complex inh: inconclusive; B2AR arrestin: 0%; CCT modulator: -46*; Rango dissoc inh: 10%; MmCpn inh: -3%

How did CC(C)OC(=O)c1ccc(N2C(=O)C3CC=CCC3C2=O)cc1 (centres undefined) do in these assays?
Rango complex inh: -4%; B2AR arrestin: -1%; CCT modulator: 0; Rango dissoc inh: -2%; MmCpn inh: -3%

What do the screens show for `COc1ccc(CCn2c(C)cc3c(c2=O)C(c2ccncc2)C(C#N)=C(N)O3)cc1OC` (centres undefined)?
Rango complex inh: -1%; B2AR arrestin: 1%; CCT modulator: -36*; Rango dissoc inh: 1%; MmCpn inh: 0%[15.4 µM]

How did CCn1c(C)cc2c(c1=O)C(c1ccncc1)C(C#N)=C(N)O2 (centres undefined) do in these assays?
Rango complex inh: 0%; B2AR arrestin: 0%; CCT modulator: 1; Rango dissoc inh: -2%; MmCpn inh: 0%

Results for CCc1cccc(NC(=O)c2cccc3c2C(=O)N(CC2CCCO2)C3)c1 (centres undefined) ?
Rango complex inh: 0%; B2AR arrestin: -1%; CCT modulator: 1; Rango dissoc inh: 11%; MmCpn inh: 1%

Results for Cc1ccc(N(CC(=O)NC2CCCCCC2)S(=O)(=O)c2c(C)nn(C)c2C)cc1 ?
Rango complex inh: 2%; B2AR arrestin: 0%; CCT modulator: -47*; Rango dissoc inh: 12%; MmCpn inh: 2%

What do the screens show for `COc1ccc(N(CC(=O)NC2CCCCCC2)S(=O)(=O)c2c(C)nn(C)c2C)cc1`?
Rango complex inh: 4%; B2AR arrestin: 0%; CCT modulator: -2; Rango dissoc inh: 4%; MmCpn inh: 0%

What do the screens show for `CCN(CC)S(=O)(=O)c1ccc(OC)c(NC(=O)C(C)Oc2ccc3c(C)cc(=O)oc3c2)c1` (centres undefined)?
Rango complex inh: inconclusive; B2AR arrestin: 0%; CCT modulator: -31*; Rango dissoc inh: 2%; MmCpn inh: -22%

What do the screens show for `CCN(CC)S(=O)(=O)c1ccc(C)c(NC(=O)COc2ccc3c(C)cc(=O)oc3c2)c1`?
Rango complex inh: 2%; B2AR arrestin: -1%; CCT modulator: -1; Rango dissoc inh: 1%; MmCpn inh: 3%

How did COc1ccc([C@H]2CC(=O)C=C(c3cccc4c3Oc3ccccc3S4)C2)cc1 do in these assays?
Rango complex inh: 1%; B2AR arrestin: 0%; CCT modulator: -1; Rango dissoc inh: 1%; MmCpn inh: -16%

How did O=C(O)c1cc2ncc(CCO)cn2n1 do in these assays?
Rango complex inh: 4%; B2AR arrestin: 3%; CCT modulator: -1; Rango dissoc inh: 7%; MmCpn inh: 1%

What do the screens show for `CC[n+]1ccccc1/C=C/c1ccc(N(C)C)cc1`?
Rango complex inh: 8.2µM*; B2AR arrestin: 0%; CCT modulator: -2; Rango dissoc inh: inconclusive; MmCpn inh: -7%

What do the screens show for `COc1ccc(NC(=O)CSc2nc3ccc(Nc4nc(N5CCOCC5)nc(N5CCOCC5)n4)cc3s2)cc1`?
Rango complex inh: 1%; B2AR arrestin: 0%; CCT modulator: -75*; Rango dissoc inh: 0%; MmCpn inh: -4%

Results for Cc1ccc(NC(=O)CSc2nc3ccc(Nc4nc(N5CCOCC5)nc(N5CCOCC5)n4)cc3s2)cc1 ?
Rango complex inh: 2%; B2AR arrestin: 0%; CCT modulator: 0; Rango dissoc inh: 7%; MmCpn inh: -1%

What do the screens show for `O=C(COC(=O)CC1CCCCC1)Nc1c(Cl)cccc1Cl`?
Rango complex inh: 7%; B2AR arrestin: 0%; CCT modulator: 2; Rango dissoc inh: -9%; MmCpn inh: 0%

How did COc1ccc(NC(=O)C(=O)NCCC2CCCCN2S(=O)(=O)c2ccc(F)cc2)cc1 (centres undefined) do in these assays?
Rango complex inh: 0%; B2AR arrestin: 0%; CCT modulator: -2; Rango dissoc inh: -2%; MmCpn inh: -2%

Results for Cc1[nH]c2ccccc2c1CCO ?
Rango complex inh: -1%; B2AR arrestin: 0%; CCT modulator: -31*; Rango dissoc inh: 0%; MmCpn inh: 1%

Results for CC(C)C[C@@H]1COc2cc(N3CCSCC3)ccc2S(=O)(=O)N1 ?
CCT modulator: 1

What do the screens show for `CNc1c(NS(=O)(=O)c2ccc(OC)c(Cl)c2)c(=O)oc2ccccc12`?
Rango complex inh: 3%; B2AR arrestin: 0%; CCT modulator: -63*; Rango dissoc inh: 3%; MmCpn inh: 5%

What do the screens show for `CN(Cc1ccccc1)C(NC(=O)c1ccccc1)C(Cl)(Cl)Cl` (centres undefined)?
Rango complex inh: -6%; B2AR arrestin: -1%; CCT modulator: -39*; Rango dissoc inh: -13%; MmCpn inh: -2%

Pulled by structure from above (3):
What do the screens show for `COc1ccc(NC(=O)CSc2nc3ccc(Nc4nc(N5CCOCC5)nc(N5CCOCC5)n4)cc3s2)cc1`?
Rango complex inh: 1%; B2AR arrestin: 0%; CCT modulator: -75*; Rango dissoc inh: 0%; MmCpn inh: -4%

What do the screens show for `O=C(COC(=O)CC1CCCCC1)Nc1c(Cl)cccc1Cl`?
Rango complex inh: 7%; B2AR arrestin: 0%; CCT modulator: 2; Rango dissoc inh: -9%; MmCpn inh: 0%

How did COc1ccc(NC(=O)C(=O)NCCC2CCCCN2S(=O)(=O)c2ccc(F)cc2)cc1 (centres undefined) do in these assays?
Rango complex inh: 0%; B2AR arrestin: 0%; CCT modulator: -2; Rango dissoc inh: -2%; MmCpn inh: -2%

Screening data from PubChem BioAssay.
